The chains behind the UniProt entries cited, without tags or fusion partners. Where a name states a change or a piece, a line headed by the entry shows the natural chain unless it says otherwise.
UniProt Q9Y6A2: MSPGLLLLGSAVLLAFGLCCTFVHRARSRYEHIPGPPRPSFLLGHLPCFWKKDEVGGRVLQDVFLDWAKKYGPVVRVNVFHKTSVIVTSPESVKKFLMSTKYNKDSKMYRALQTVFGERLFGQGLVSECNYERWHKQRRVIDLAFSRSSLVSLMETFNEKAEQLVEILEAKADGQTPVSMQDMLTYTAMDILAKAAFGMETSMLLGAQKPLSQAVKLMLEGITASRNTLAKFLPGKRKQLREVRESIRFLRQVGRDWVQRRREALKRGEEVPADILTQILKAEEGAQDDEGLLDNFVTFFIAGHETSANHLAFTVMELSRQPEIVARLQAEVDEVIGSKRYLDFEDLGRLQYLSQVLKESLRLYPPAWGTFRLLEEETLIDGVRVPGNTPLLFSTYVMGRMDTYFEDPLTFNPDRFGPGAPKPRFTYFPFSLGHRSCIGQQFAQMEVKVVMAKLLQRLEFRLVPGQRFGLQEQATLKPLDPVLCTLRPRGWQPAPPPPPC

In paper PMC7658267, “Effects of CYP46A1 Inhibition on Long-Term-Depression in Hippocampal Slices ex vivo and 24S-Hydroxycholesterol Levels in Mice in vivo” (Frontiers in Molecular Neuroscience, 2020):

Biological target: CYP46A1 (Homo sapiens, UniProt Q9Y6A2)

C[C@]12CC[C@H]3[C@@H](CCC4=CC(=O)CC[C@@]43C)[C@@H]1CC[C@@H]2O [testosterone]
oxidation to 16beta-hydroxytestosterone by human CYP46A1R bactosomes, LC-MS/MS: oxidation of testosterone to 16-beta-hydroxytestosterone by human CYP46A1 enzyme in vitro
